Test results: PubChem BioAssay AID540295 (The Scripps Research Institute Molecular Screening Center, 2011)
The list shows a part of the results, in another mix than the full data. Some structures show a salt or complex split into parts, the way the source records it. The source made the active and inactive calls.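 The calls were made as follows: active = inhibition above its plate's cutoff, the mean of tested wells on that plate plus 3 SD (cut at about 29% in these data); inactive = the rest.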

The chains behind the UniProt entries cited, without tags or fusion partners.
UniProt P32245, whole entry: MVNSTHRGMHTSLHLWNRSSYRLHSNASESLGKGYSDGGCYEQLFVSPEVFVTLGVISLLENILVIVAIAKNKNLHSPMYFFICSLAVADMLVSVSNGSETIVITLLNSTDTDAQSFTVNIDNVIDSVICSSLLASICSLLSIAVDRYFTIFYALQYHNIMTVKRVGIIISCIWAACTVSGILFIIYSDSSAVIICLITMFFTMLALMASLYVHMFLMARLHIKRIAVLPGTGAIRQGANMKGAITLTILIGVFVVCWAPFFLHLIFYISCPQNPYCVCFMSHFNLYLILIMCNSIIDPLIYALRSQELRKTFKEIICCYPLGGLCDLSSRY

These compounds were tested against Melanocortin receptor 4 (Homo sapiens) (UniProt P32245) (assay: MC4R antagonists of cAMP signaling, primary screen, cell-based, TR-FRET, antagonist arm of biased-ligand search (AID 540295;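 also: 0% = Melanotan II alone and 100% = Melanotan II plus saturating MCL0020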)). Conditions: MC4R-expressing cells, MTII-stimulated cAMP, LANCE TR-FRET; at 6.5 µM; stronger effect = higher value.

Row | Structure (SMILES) | inhibition
1 | O=[N+]([O-])c1ccc(OP2(=O)COCCO2)cc1 (stereo not drawn) | inactive: 8.95%
2 | O=[N+]([O-])c1cc([N+](=O)[O-])c(NCC2CCS(=O)(=O)C2)c([N+](=O)[O-])c1 (stereo not drawn) | inactive: 16.5%
3 | Cc1cc(-c2cccc3ccccc23)c(C)cn1.O=[N+]([O-])c1cc([N+](=O)[O-])c(O)c([N+](=O)[O-])c1 | inactive: -5.86%
4 | Cc1c(C(c2ccc3c(c2)OCO3)c2c(C)n(C)n(-c3ccccc3)c2=O)c(=O)n(-c2ccccc2)n1C.O=[N+]([O-])c1cc([N+](=O)[O-])c(O)c([N+](=O)[O-])c1 | inactive: 12.1%
5 | COc1ccc(OP(C)(=O)Nc2cccc(Br)c2)cc1 (stereo not drawn) | inactive: -5.35%
6 | CN(C)CCOC(=O)C(O)(c1ccccc1)C1CCCCC1 (stereo not drawn) | inactive: 2.54%
7 | COc1ccc(NP(C)(=O)Oc2ccccc2OC)cc1 (stereo not drawn) | inactive: 7.62%
8 | CP(=O)(Nc1ccc2c(c1)OCCO2)Oc1ccccc1 (stereo not drawn) | inactive: 3.3%
9 | Cc1ccccc1NP(C)(=O)Nc1ccccc1C | inactive: -0.07%
10 | CP(=O)(Nc1ccc(SC(F)(F)F)cc1)Oc1ccc(F)cc1 (stereo not drawn) | inactive: 17.8%
11 | CCOP(C)(=S)SCC(=O)NC(C)(CC)C(=O)O (stereo not drawn) | inactive: 10%
12 | O=C(OC1CN2CCC1CC2)c1ccc([N+](=O)[O-])cc1 (stereo not drawn) | inactive: 21.2%
13 | O=C(OCCN1CCN(CCOCc2ccccc2)CC1)C(O)(c1ccccc1)c1ccccc1 | inactive: -2.68%
14 | COc1ccc2c(c1O)-c1c(O)c(OC)cc3c1[C@H](C2)[N+](C)(C)CC3.O=[N+]([O-])c1cc([N+](=O)[O-])c([O-])c([N+](=O)[O-])c1[O-] | inactive: 1.75%
15 | O=[N+]([O-])c1cc([N+](=O)[O-])c(Nc2ccc(Cl)cc2)c([N+](=O)[O-])c1 | inactive: 18.8%
16 | CP(=O)(Nc1ccccc1F)Oc1ccccc1 (stereo not drawn) | inactive: 1.36%
17 | CC(C)c1ccc(OP(C)(=O)Nc2ccc(SC(F)(F)F)cc2)cc1 (stereo not drawn) | inactive: 7.41%
18 | Cc1c([N+](=O)[O-])cc([N+](=O)[O-])c(Br)c1[N+](=O)[O-] | inactive: 4.92%
19 | CCN(CC)CCCOC(=O)C(O)(c1ccccc1)C1CCCCC1 (stereo not drawn) | inactive: 0.85%
20 | CP(=O)(Nc1ccccc1)Oc1ccc(F)cc1 (stereo not drawn) | inactive: 8.8%
21 | CCCCCOc1ccc(NP(C)(=O)Oc2ccc(Cl)cc2Cl)cc1 (stereo not drawn) | inactive: -3.66%
22 | O=[N+]([O-])c1cc([N+](=O)[O-])c(OC2CCCCC2O)c([N+](=O)[O-])c1 (stereo not drawn) | inactive: 15.6%
23 | CCOC(=O)c1ccc(NP(C)(=O)Oc2ccc(F)cc2)cc1 (stereo not drawn) | inactive: 9.92%
24 | COc1ccc(OP(C)(=O)Nc2ccc(SC(F)(F)F)cc2)cc1 (stereo not drawn) | inactive: 3.41%

Row | Structure (SMILES) | inhibition
25 | CP(=O)(OCCOc1ccccc1)OCCOc1ccccc1 | inactive: 0.66%
26 | CCCCCCCCCCCCCCCC1C[N+](C)(C)CCOP(C)(=O)O1 (stereo not drawn) | inactive: 17.4%
27 | CP(=O)(Nc1ccc(Cl)cc1Cl)Oc1ccccc1 (stereo not drawn) | inactive: 7.13%
28 | Cc1cc(C)cc(OP(C)(=O)Nc2cccc(C(F)(F)F)c2)c1 (stereo not drawn) | inactive: 1.46%
29 | O=C1C(O)=C([N+](=O)[O-])C(=O)C(O)=C1[N+](=O)[O-] | inactive: 0.13%
30 | COc1ccccc1OP(C)(=O)Nc1ccc(C)c(C)c1 (stereo not drawn) | inactive: 3.2%
31 | COc1ccc(OP(C)(=O)Nc2ccccc2Br)cc1 (stereo not drawn) | inactive: 5.37%
32 | O=[N+]([O-])c1cc([N+](=O)[O-])c(Nc2ccccn2)c([N+](=O)[O-])c1 | inactive: 2.46%
33 | Cc1c(NP(C)(=O)Oc2ccc(C(C)C)cc2)c(=O)n(-c2ccccc2)n1C (stereo not drawn) | inactive: 1.39%
34 | COc1ccccc1OP(C)(=O)Nc1ccc(C)cc1C (stereo not drawn) | inactive: -5.8%
35 | CP(=O)(Nc1ccccn1)Oc1ccccc1 (stereo not drawn) | inactive: 1.84%
36 | CCc1ccc(OP(C)(=O)O)cc1 | inactive: 6.78%
37 | COc1ccccc1OP(C)(=O)Nc1ccc(Br)cc1 (stereo not drawn) | inactive: 5.18%
38 | CN(C)CCOC(=O)C(O)(c1ccccc1)C1CCCC1 (stereo not drawn) | inactive: 1.66%
39 | CC(C)(C)c1ccc(OP(C)(=O)O)cc1 | inactive: 9.67%
40 | COc1ccccc1OP(C)(=O)Nc1ccccc1Br (stereo not drawn) | inactive: 12.2%
41 | CP(=O)(Nc1ccc(Cl)cc1)Oc1ccc(F)cc1 (stereo not drawn) | inactive: 15.9%
42 | CN(C)C(=O)c1c([N+](=O)[O-])cc([N+](=O)[O-])cc1[N+](=O)[O-] | inactive: -6.45%
43 | COc1ccc(OP(C)(=O)Nc2ccc(Br)cc2)cc1 (stereo not drawn) | inactive: 4.99%
44 | CCN(CC)CC(O)COC(=O)C(O)(c1ccccc1)C1CCCCC1 (stereo not drawn) | inactive: 2.65%
45 | O=C(OCCCN1CCCC1)C(O)(c1ccccc1)C1CCCCC1 (stereo not drawn) | inactive: 6.35%
46 | COc1ccccc1OP(C)(=O)Nc1c(C)n(C)n(-c2ccccc2)c1=O (stereo not drawn) | inactive: 0.04%
47 | CCc1ccc(OP(C)(=O)Nc2cccnc2)cc1 (stereo not drawn) | inactive: 27.5%
48 | CP(=O)(Oc1ccccc1)N1CCOC1=O (stereo not drawn) | inactive: 0.96%

Row | Structure (SMILES) | inhibition
49 | CCOC(=O)c1ccc(NP(C)(=O)Oc2ccc(Cl)cc2)cc1 (stereo not drawn) | inactive: 11.7%
50 | CP(=O)(OC12CC3CC(CC(C3)C1)C2)OC12CC3CC(CC(C3)C1)C2 | inactive: 9.9%
51 | CP(=S)(Nn1cnnc1)Oc1ccccc1 (stereo not drawn) | inactive: 2.09%
52 | CP(=O)(Nc1ccccc1Br)Oc1ccccc1 (stereo not drawn) | inactive: 2.01%
53 | COc1ccccc1OP(C)(=O)Nc1ccccc1 (stereo not drawn) | inactive: -1.02%
54 | O=[N+]([O-])c1cc([N+](=O)[O-])c(O)c([N+](=O)[O-])c1.c1ccc(Oc2ccncc2)cc1 | inactive: 11.1%
55 | CCOC(=O)c1ccc(NP(C)(=O)Oc2ccc(OC)cc2)cc1 (stereo not drawn) | inactive: 12.1%
56 | CCOP(C)(=S)SCC(=O)NC(C)C(=O)O (stereo not drawn) | inactive: 8.02%
57 | CP(=O)(Nc1ccccn1)Oc1ccc(Cl)cc1 (stereo not drawn) | inactive: 6.73%
58 | CP(=O)(Oc1ccccc1)OC(c1ccccc1)C(F)(F)F (stereo not drawn) | inactive: 1.44%
59 | CP(=O)(Nc1ccc(SC(F)(F)F)cc1)Oc1ccc(Cl)cc1 (stereo not drawn) | inactive: 2.57%
60 | Cc1cccc(C)c1OP(C)(=O)Nc1ccc(SC(F)(F)F)cc1 (stereo not drawn) | inactive: 6.53%
61 | Cc1ccc(Nc2c([N+](=O)[O-])cc([N+](=O)[O-])cc2[N+](=O)[O-])cc1 | inactive: 6.14%
62 | Cc1cc(C)cc(OP(C)(=O)Nc2ccc(SC(F)(F)F)cc2)c1 (stereo not drawn) | inactive: -4.15%
63 | CCc1ccc(OP(C)(=O)N2CCN(c3ccc([N+](=O)[O-])cc3)CC2)cc1 (stereo not drawn) | inactive: 9.76%
64 | CP(=O)(NC(=O)Nc1ccccc1)Oc1ccccc1 (stereo not drawn) | inactive: -2.98%
65 | CCN(CC)CCCOC(=O)C(O)(c1ccccc1)c1ccccc1 | inactive: 1.25%
66 | Cc1ccc(NP(C)(=O)Oc2ccccc2)c(C)c1 (stereo not drawn) | inactive: 3.73%
67 | COc1ccccc1OP(C)(=O)Nc1ccc(C)cc1 (stereo not drawn) | inactive: -1.4%
68 | CCOC(=O)c1ccc(NP(C)(=O)Oc2ccccc2)cc1 (stereo not drawn) | inactive: 7.22%
69 | Cc1cc(C)cc(OP(C)(N)=O)c1 (stereo not drawn) | inactive: 12.2%
70 | COc1ccc(OP(C)(=O)Nc2cccc(F)c2)cc1 (stereo not drawn) | inactive: 7.38%
71 | COc1ccccc1OP(C)(=O)Nc1cc(Cl)ccc1C (stereo not drawn) | inactive: -1.26%
72 | O=[N+]([O-])c1cc([N+](=O)[O-])c(Nc2cccnc2)c([N+](=O)[O-])c1 | inactive: -1.5%

Row | Structure (SMILES) | inhibition
73 | O=[N+]([O-])c1ccc2c(c1)C=Nc1ccccc1O2 | inactive: -21.5%
74 | Cc1cccc(C)c1OP(C)(N)=O (stereo not drawn) | inactive: 1.01%
75 | CC(C)(C)c1ccc(OP(C)(=O)Nc2ccc(SC(F)(F)F)cc2)cc1 (stereo not drawn) | inactive: 13.9%
76 | CC1=NCCc2c1[nH]c1ccccc21.O=[N+]([O-])c1cc([N+](=O)[O-])c(O)c([N+](=O)[O-])c1 | inactive: 8.33%
77 | O=C(O)c1cccc(Nc2c([N+](=O)[O-])cc([N+](=O)[O-])cc2[N+](=O)[O-])c1 | inactive: 13.2%
78 | Cc1ccc(C)c(NP(C)(=O)Oc2ccccc2)c1 (stereo not drawn) | inactive: -6.98%
79 | CP(=O)(Nc1cccc(Br)c1)Oc1ccccc1 (stereo not drawn) | inactive: 6.35%
80 | Cc1cc(C)cc(OP(C)(=O)Nc2ccccn2)c1 (stereo not drawn) | inactive: 4.21%
81 | COc1ccccc1OP(C)(=O)Nc1cccc(Br)c1 (stereo not drawn) | inactive: 9.14%
82 | CCOC(=O)c1ccc(NP(C)(=O)Oc2cc(C)cc(C)c2)cc1 (stereo not drawn) | inactive: -6.42%
83 | Cc1cc(C)cc(OP(C)(=O)Nc2ccc(C)cc2C)c1 (stereo not drawn) | inactive: 4.55%
84 | O=[N+]([O-])c1cc([N+](=O)[O-])c(-c2cnn(-c3ccccc3)c2)c([N+](=O)[O-])c1 | inactive: 4.76%
85 | Cc1nc2ccc3ccccc3c2s1.O=[N+]([O-])c1cc([N+](=O)[O-])c(O)c([N+](=O)[O-])c1 | inactive: -1.46%
86 | O=[N+]([O-])c1cc([N+](=O)[O-])c(-n2nnc3ccccc32)c([N+](=O)[O-])c1 | inactive: 1.45%
87 | CN1CCCCC1COC(=O)C1(O)c2ccccc2CCc2ccccc21 (stereo not drawn) | inactive: -1.16%
88 | COc1ccccc1OP(C)(=O)Nc1c(C)cccc1C (stereo not drawn) | inactive: 15.6%
89 | CP(=O)(Nc1ccc(SC(F)(F)F)cc1)Oc1ccccc1 (stereo not drawn) | inactive: 5.69%
90 | CCCOc1ccc(NP(C)(=O)Oc2ccc(Cl)cc2)cc1 (stereo not drawn) | inactive: 0.75%
91 | CCOC(=O)C(CC)C1=NC(C)(C)Cc2ccccc21.O=[N+]([O-])c1cc([N+](=O)[O-])c(O)c([N+](=O)[O-])c1 (stereo not drawn) | inactive: 5.65%
92 | O=[N+]([O-])c1cc([N+](=O)[O-])c(Nc2nnnn2CCO)c([N+](=O)[O-])c1 | inactive: 9.78%
93 | CC1=C2N=C(C=C3N=C(C(C)=C4[N-][C@@](C)([C@@H]5N=C1[C@](C)(CCC(=O)NC[C@@H](C)OP(=O)([O-])O[C@H]1[C@@H](O)[C@@H](n6cnc7cc(C)c(C)cc76)O[C@@H]1CO)[C@H]5CC(N)=O)[C@@](C)(CC(N)=O)[C@@H]4CCC(N)=O)[C@@](C)(CC(N)=O)[C@@H]3CCC(N)=O)C(C)(C)[C@@H]2CCC(N)=O.[C-]#N.[Co+3] | inactive: 1.83%
